## Apparent affinities of Ab-14 variants for a coronavirus HR2 peptide

From the AlphaSeq antibody data of Engelhart et al. 2022 (doi:10.1038/s41597-022-01779-4), copy in the FLAb collection.

All variants were tested on one target, the spike HR2 peptide PDVDLGDISGINAS (SARS-CoV-2).

Ab-14 is the parent antibody, in scFv form: VH, then the linker GGGGSGGGGSGGGGS, then VL. The light chain is unchanged in all variants.
VH: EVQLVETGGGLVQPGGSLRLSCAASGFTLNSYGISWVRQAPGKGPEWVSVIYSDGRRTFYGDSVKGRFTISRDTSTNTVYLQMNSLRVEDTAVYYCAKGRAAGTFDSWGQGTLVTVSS
VL: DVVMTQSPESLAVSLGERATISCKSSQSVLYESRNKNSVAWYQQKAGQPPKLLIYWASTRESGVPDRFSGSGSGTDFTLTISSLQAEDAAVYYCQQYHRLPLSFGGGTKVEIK

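Phage display of a naive human antibody library on the peptide gave the parent. The library (AAYL49) carries one to three amino acid substitutions per variant, with no insertions or deletions. In AlphaSeq, yeast of one mating type display the scFv and yeast of the other type display the target. After mating in shaken culture at 30 °C for 16 h, diploids were selected and their barcode pairs sequenced. Read counts were normalised to the haploid input and turned into Kd by a linear fit to BCL2-family pairs of known affinity, for each replicate. There are three technical replicates.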

Positions count from residue 1 of the parent VH; G26T puts T in place of G.
Affinities are written as log10 Kd with Kd in nM; a lower number is a better binder.
A mean of the replicates is given; it leaves out those without a signal.
"nd" means that the variant was in the library but no mating with the target was seen in that replicate; the authors take this as a sign of poor binding, and no number exists.
Empty control strains, which show no peptide, gave a signal in 15% of pairings with library AAYL49; the median was 4.06 and 95% of these signals were weaker than 2.83. No background was subtracted. For each scFv, signals with the empty controls are counted beside the result, with their mean in brackets.
Parent in this assay: reference entry 0.65, copy in this library 4.11 (one replicate of three).

changes,"replicates, log10 nM","mean, log10 nM",signal with controls
G26T/G61S/A101Q,0.34 0.74 0.57,0.55,3 of 9 (3.98)
G26I/A102G,nd nd 3.99,3.99,1 of 9 (4.32)
R57W/Y60H,nd nd nd,nd,0 of 9
V50G/S53D/S107C,5.99 nd 6.30,6.15,5 of 9 (4.20)
T58L/T104Y/D106L,nd nd nd,nd,0 of 9
V50R/G55E/T104C,nd nd nd,nd,0 of 9
Y60H,2.45 2.42 2.46,2.44,0 of 9
G33K/S53C/G99L,3.94 3.42 nd,3.68,2 of 9 (4.05)
T58Y/T104A,nd nd nd,nd,1 of 9 (2.98)
I34C/Y52T/K65M,nd nd nd,nd,0 of 9
I51R/T58G/G61C,4.01 nd 4.93,4.47,1 of 9 (3.40)
Y52T/R57L/R100E,nd nd nd,nd,2 of 9 (4.24)
T28R/N30H/G99N,nd nd nd,nd,2 of 9 (3.92)
G33S/R56C/S107V,nd nd nd,nd,0 of 9
G26K/N30P/G99K,nd nd nd,nd,2 of 9 (3.62)
S35W/I51D/D62F,nd nd nd,nd,0 of 9
Y32V/V50W/K65S,nd 1.87 nd,1.87,1 of 9 (3.43)
N30F/I51K/G103K,nd 3.26 nd,3.26,1 of 9 (4.11)
G33H/G55K/R57P,nd 3.68 nd,3.68,0 of 9
G33H/V50E/F59M,nd nd nd,nd,1 of 9 (4.31)
F27A/G61N/D62V,nd nd nd,nd,1 of 9 (4.36)
G26W/S31Q/I34N,nd nd nd,nd,4 of 9 (3.71)
T58Y/S63L/G99N,nd nd nd,nd,1 of 9 (3.38)
Y32V/F105T,2.39 2.97 2.84,2.73,2 of 9 (3.92)
R56W/G61S/D106E,0.53 0.72 0.63,0.63,1 of 9 (3.12)
V64T/K65C/A101V,1.89 1.47 1.84,1.73,4 of 9 (3.64)
Y52A/T58Y,nd nd nd,nd,0 of 9
V50A/K65Q,nd 2.66 5.39,4.02,2 of 9 (4.32)
G61Y/K65N,nd nd nd,nd,0 of 9
S53K/D54L/R100A,nd nd nd,nd,0 of 9
S35D/D54G/T104Q,nd 2.76 nd,2.76,7 of 9 (4.00)
I34D/V50C/S53V,5.11 nd 3.79,4.45,2 of 9 (4.64)
Y52L/R56P/A102M,5.12 3.88 nd,4.50,6 of 9 (4.72)
V50K/D62S/K65F,nd nd nd,nd,0 of 9
V50A/R100Q/A101Y,nd 4.89 nd,4.89,1 of 9 (3.91)
G26R/F27R/S107I,nd nd nd,nd,0 of 9

The first 6 variants above that were never detected:

changes,"replicates, log10 nM","mean, log10 nM",signal with controls
R57W/Y60H,nd nd nd,nd,0 of 9
T58L/T104Y/D106L,nd nd nd,nd,0 of 9
V50R/G55E/T104C,nd nd nd,nd,0 of 9
T58Y/T104A,nd nd nd,nd,1 of 9 (2.98)
I34C/Y52T/K65M,nd nd nd,nd,0 of 9
Y52T/R57L/R100E,nd nd nd,nd,2 of 9 (4.24)